Bioassay records: PubChem BioAssay, ICCB-Longwood Screening Facility, Harvard Medical School
HCMV NEC inh = inhibitors of HCMV UL50-UL53 nuclear egress complex interaction. inhibition, % (concentration not given with the values). 190,000 tested, 0.15% active. HTRF UL50-UL53 interaction, normalized percent inhibition; in the data active = inhibition above about 27%, passing the limit was not always enough
GIV Gai3 FP = inhibitors of GIV GBA-motif binding to rat Galpha-i3. actives 0.42% (n = 210,000). Galpha-i3/FITC-GIV peptide fluorescence polarization, 90 min; active compounds read low; scaled: aluminum fluoride 0%, vehicle 100%. AID 1224905. percent of control (FP), % (no concentration beside the values). P08753;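 active means replicate mean at 85% of control or lower, very high polarization wells dropped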;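 further: wells of about 15 µL received 100 nL stock; the first replicate is given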
GIV-Gai FP conf = confirmation of inhibitors of GIV binding to rat Galpha-i3; shares compounds with GIV Gai3 FP; FITC-GIV peptide binding to Galphai3, fluorescence polarization; active compounds read low; fluorescence polarization, mP at 100 µM; 580 tested, 38% active;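 active = inhibition score of 15 or more, meaning 100 minus mean polarization as percent of control over three replicates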;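 also: lower mP means peptide displaced from Galphai3 so more inhibition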
GIV Gai AS conf = GIV-Galpha-i3 inhibition, AlphaScreen confirmation | shares compounds with GIV Gai3 FP | AlphaScreen counts at 100 µM | 580 tested, 39% active | AlphaScreen Galphai3-GIV binding, purified proteins, 90 min; active compounds read low;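 active = inhibition score at or above a set limit, where the score is 100 minus the three-replicate mean percent of control signal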
* marks the source's active call; other numbers are inactive results. Only some compounds are listed: those with a hit (about 0.46% of all), similar ones and a draw of the others.

COc1ccc(S(=O)(=O)N(C)C)cc1-c1noc(C)n1 was read as HCMV NEC inh -17 and GIV Gai3 FP 107.
O=C(NCCN1CCc2ccccc2C1)Nc1cccc2c1CCCC2 was read as HCMV NEC inh -23 and GIV Gai3 FP 100.
Screening FC(F)(F)c1cc(-c2csnn2)cc(C(F)(F)F)c1 returned HCMV NEC inh 0 and GIV Gai3 FP 102.
`COc1cc(/C=C2\C(=O)N(c3ccc(S(N)(=O)=O)cc3)N=C2C)ccc1OCc1ccccc1` gave GIV Gai3 FP 100.
For COc1cc(/C=C2/C(=O)N(c3ccccc3)N=C2C)ccc1OS(=O)(=O)c1ccccc1 the results were HCMV NEC inh 42*, GIV Gai3 FP 81*, GIV-Gai FP conf 60* and GIV Gai AS conf 21149*.
`O=C(Nc1cccc(Cl)c1)c1cc2c(s1)-c1ccccc1S(=O)(=O)C2` gave HCMV NEC inh 2 and GIV Gai3 FP 103.
`O=C1C2CC=CCC2C(=O)N1c1ccccc1O` (stereo unspecified) gave GIV Gai3 FP 96.
Screening CC(=O)Nc1nonc1NC(C)=O returned HCMV NEC inh -9 and GIV Gai3 FP 107.
Screening CC(=O)Nc1cc(OC(C)=O)c2nonc2c1OC(C)=O returned HCMV NEC inh 101*, GIV Gai3 FP -28*, GIV-Gai FP conf 16* and GIV Gai AS conf 3290*.
For O=C(CC1COc2ccccc2N1Cc1ccccc1)Nc1ccc(Cl)cc1 (stereo unspecified) the results were HCMV NEC inh -17 and GIV Gai3 FP 110.
For O=c1cc(-c2ccccc2)oc2cc(Cl)ccc12 the results were HCMV NEC inh -8.
`Nc1cc(N)c2cc(-c3ccccc3)oc2c1` gave HCMV NEC inh 95*, GIV Gai3 FP 81*, GIV-Gai FP conf 66 and GIV Gai AS conf 30925.
`O=C(CSc1nnc(NC2CCCCC2)s1)OCc1nnc(-c2ccccc2)o1` gave HCMV NEC inh -7.
Screening Cc1ncc(CO)c2cc(C(N)=S)c(=Nc3ccc(NC(=O)c4ccco4)cc3)oc12 returned HCMV NEC inh -49 and GIV Gai3 FP 104.
Screening C=CCN1C(=O)/C(=C2/Sc3ccc(Cl)cc3N2CC)SC1=S returned GIV Gai3 FP 111.
`C=CCN1C(=O)/C(=C2/Sc3ccccc3N2CC)SC1=S` gave GIV Gai3 FP 77*, GIV-Gai FP conf 72 and GIV Gai AS conf 3469*.
`CCOC(=O)c1ccc2nsnc2c1` gave HCMV NEC inh -69 and GIV Gai3 FP 101.
For COC(=O)c1ccc2nsnc2c1 the results were GIV Gai3 FP 86, GIV-Gai FP conf 65 and GIV Gai AS conf 37884.
O=C1CC(c2ccccc2Cl)Sc2ccccc2N1 (stereo unspecified) was read as HCMV NEC inh -18 and GIV Gai3 FP 106.
For CN1CCN(c2nc(C#N)c(C#N)nc2C(C#N)=C2Nc3ccccc3N2)CC1 the results were HCMV NEC inh -24 and GIV Gai3 FP 100.
`CCN1/C(=C(\C#N)c2nc(C#N)c(C#N)nc2N2CCOCC2)Nc2ccccc21` gave HCMV NEC inh -7, GIV Gai3 FP 67*, GIV-Gai FP conf 75 and GIV Gai AS conf 32831.
Screening CN(CC(=O)NC1CCCCCCC1)S(=O)(=O)c1ccc2[nH]c(=O)oc2c1 returned HCMV NEC inh -21 and GIV Gai3 FP 106.
`CCC(Sc1nc2ccccc2c(=O)n1CCC(=O)NCCc1ccc(OC)c(OC)c1)C(=O)NCCCOC` (stereo unspecified) gave GIV Gai3 FP 105.
Screening CCN1C=CC2=C(C#N)C(N)C(C#N)(C#N)C(c3cccs3)C2C1 (stereo unspecified) returned HCMV NEC inh -51, GIV Gai3 FP 65*, GIV-Gai FP conf 64 and GIV Gai AS conf 28433.
`CCOC(=O)N1CC=C2C(C#N)=C(N)C(C#N)(C#N)C(c3cccs3)C2C1` (stereo unspecified) gave GIV Gai3 FP 107.
`O=C(NCCc1ccccc1)NCCn1c(C(F)(F)F)nc2cccnc21` gave HCMV NEC inh -2 and GIV Gai3 FP 116.
`COC(=O)CNC(=O)NCCCn1c(C(F)(F)F)nc2cccnc21` gave HCMV NEC inh -8, GIV Gai3 FP 80*, GIV-Gai FP conf 59* and GIV Gai AS conf 26853.
Nc1nc2c3cccc4cccc(c(=O)n2n1)c43 was read as HCMV NEC inh -120, GIV Gai3 FP 80*, GIV-Gai FP conf 75 and GIV Gai AS conf 24808.
Screening Cc1cc2nc3c4cccc5cccc(c(=O)n3c2cc1C)c54 returned GIV Gai3 FP 101.
`COc1cccc(CNC(=O)CN2C(=O)c3cccnc3Oc3ccc(C)cc32)c1` gave HCMV NEC inh -16 and GIV Gai3 FP 105.
Screening O=C1/C(=C/c2cn(-c3ccccc3)nc2-c2cccs2)SC(=S)N1C1CCS(=O)(=O)C1 (stereo unspecified) returned HCMV NEC inh -18 and GIV Gai3 FP 94.
O=C1/C(=C\c2cccnc2)SC(=S)N1C1CCS(=O)(=O)C1 (stereo unspecified) was read as HCMV NEC inh -32, GIV Gai3 FP 89, GIV-Gai FP conf 73 and GIV Gai AS conf 36761.
For O=C(NCCS(=O)(=O)N1CCCC1)c1ccc2c(c1)OCO2 the results were HCMV NEC inh -27 and GIV Gai3 FP 101.
Screening CCCCNC(=O)c1cnc(N(C)C)nc1C returned HCMV NEC inh -28 and GIV Gai3 FP 99.
Screening CCCCOc1ccc(C2=N/C(=C\c3ccc(OC(C)=O)c(OC(C)=O)c3)C(=O)O2)cc1 returned HCMV NEC inh -26, GIV Gai3 FP 72*, GIV-Gai FP conf 69 and GIV Gai AS conf 51880.
CCCCOc1ccc(C2=N/C(=C\c3ccc(OC)c(OC(C)=O)c3)C(=O)O2)cc1 was read as HCMV NEC inh -33 and GIV Gai3 FP 102.
For CCOC(=O)c1ccccc1Nc1nc2ccc(C)cc2n2nnnc12 the results were HCMV NEC inh -6 and GIV Gai3 FP 107.
Screening COc1ccccc1Nc1nc2ccc(C)cc2n2nnnc12 returned HCMV NEC inh -19, GIV Gai3 FP 74*, GIV-Gai FP conf 69 and GIV Gai AS conf 51081.
For CC(OC(=O)c1cc(=O)c2ccccc2[nH]1)C(=O)Nc1ccccc1F (stereo unspecified) the results were HCMV NEC inh -18.
`COc1ccc(/C=C2\N=C(c3ccc(Cl)cc3)N(c3ccc(C)cc3C)C2=O)cc1OC` gave GIV Gai3 FP 109.

Grouped by structure: those above with a furan ring, fused or not (2)
`Nc1cc(N)c2cc(-c3ccccc3)oc2c1` gave HCMV NEC inh 95*, GIV Gai3 FP 81*, GIV-Gai FP conf 66 and GIV Gai AS conf 30925.
Screening Cc1ncc(CO)c2cc(C(N)=S)c(=Nc3ccc(NC(=O)c4ccco4)cc3)oc12 returned HCMV NEC inh -49 and GIV Gai3 FP 104.

(further entries)
COc1ccc(/C=C2\N=C(c3ccc(Cl)cc3)N(c3cccc(C)c3)C2=O)cc1OC was read as GIV Gai3 FP 117.
Screening COc1ccc(/C=C2\N=C(c3ccc(Cl)cc3)N(c3cccc(F)c3)C2=O)cc1OC returned GIV Gai3 FP 88, GIV-Gai FP conf 79 and GIV Gai AS conf 49008.
`COc1ccc(/C=C2\N=C(c3ccc(Cl)cc3)N(c3ccccc3)C2=O)cc1OC` gave GIV Gai3 FP 81*, GIV-Gai FP conf 81 and GIV Gai AS conf 50234.
For CC(C)(C)c1csc(-c2csc(S(=O)(=O)N3CCCCC3)c2)n1 the results were GIV Gai3 FP 107.

Structural class, the entries above with an aryl thioether with sulfur outside any ring
`O=C(CSc1nnc(NC2CCCCC2)s1)OCc1nnc(-c2ccccc2)o1` gave HCMV NEC inh -7.
`CCC(Sc1nc2ccccc2c(=O)n1CCC(=O)NCCc1ccc(OC)c(OC)c1)C(=O)NCCCOC` (stereo unspecified) gave GIV Gai3 FP 105.
